These are literature values, as cited in US12240813B2, “Deuterated tryptamine derivatives and methods of use” (priority 2020, dated 2025).

Sequences of proteins named here, by UniProt entry; tags and fusion partners are left off.
UniProt P41595, whole entry: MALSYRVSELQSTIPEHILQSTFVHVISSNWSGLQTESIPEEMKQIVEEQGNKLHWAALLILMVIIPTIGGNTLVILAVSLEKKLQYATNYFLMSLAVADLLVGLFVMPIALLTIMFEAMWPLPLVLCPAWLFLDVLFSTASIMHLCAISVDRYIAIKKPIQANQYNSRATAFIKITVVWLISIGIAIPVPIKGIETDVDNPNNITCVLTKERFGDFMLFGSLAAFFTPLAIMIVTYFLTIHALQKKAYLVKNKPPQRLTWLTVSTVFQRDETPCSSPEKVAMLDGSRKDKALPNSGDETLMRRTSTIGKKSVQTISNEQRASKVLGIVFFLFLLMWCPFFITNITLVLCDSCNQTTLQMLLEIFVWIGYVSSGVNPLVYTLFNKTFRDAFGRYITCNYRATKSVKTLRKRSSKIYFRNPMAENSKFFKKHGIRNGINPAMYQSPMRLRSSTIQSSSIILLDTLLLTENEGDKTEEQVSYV

The data set deals with T1, 5-HT2B receptor (Homo sapiens, UniProt P41595).
T1 construct: expressed in transfected cells; host or cells: CHO-K1 or HEK293
To be noted: agonist-labeled, PI data PDSP certified or from literature; cited from earlier work.

As for `CN(C)CCc1c[nH]c2cccc(O)c12` [PI, psilocin], the Ki is 5 nM.

Broadly, the Ki is the dissociation constant of the complex between target and ligand, obtained from inhibition or displacement.
